Data: US9487818B2, “TOP2A inhibition by temozolomide and its predictive value of GBM patients survival” (COUNCIL OF SCIENTIFIC & INDUSTRIAL RESEARCH, priority 2010, dated 2016)

Protein sequences, listed by entry. Tags and fused reporters are not part of them. Lines headed by an entry give the natural chain unless they say otherwise; changes in a name come on top.
UniProt P11388: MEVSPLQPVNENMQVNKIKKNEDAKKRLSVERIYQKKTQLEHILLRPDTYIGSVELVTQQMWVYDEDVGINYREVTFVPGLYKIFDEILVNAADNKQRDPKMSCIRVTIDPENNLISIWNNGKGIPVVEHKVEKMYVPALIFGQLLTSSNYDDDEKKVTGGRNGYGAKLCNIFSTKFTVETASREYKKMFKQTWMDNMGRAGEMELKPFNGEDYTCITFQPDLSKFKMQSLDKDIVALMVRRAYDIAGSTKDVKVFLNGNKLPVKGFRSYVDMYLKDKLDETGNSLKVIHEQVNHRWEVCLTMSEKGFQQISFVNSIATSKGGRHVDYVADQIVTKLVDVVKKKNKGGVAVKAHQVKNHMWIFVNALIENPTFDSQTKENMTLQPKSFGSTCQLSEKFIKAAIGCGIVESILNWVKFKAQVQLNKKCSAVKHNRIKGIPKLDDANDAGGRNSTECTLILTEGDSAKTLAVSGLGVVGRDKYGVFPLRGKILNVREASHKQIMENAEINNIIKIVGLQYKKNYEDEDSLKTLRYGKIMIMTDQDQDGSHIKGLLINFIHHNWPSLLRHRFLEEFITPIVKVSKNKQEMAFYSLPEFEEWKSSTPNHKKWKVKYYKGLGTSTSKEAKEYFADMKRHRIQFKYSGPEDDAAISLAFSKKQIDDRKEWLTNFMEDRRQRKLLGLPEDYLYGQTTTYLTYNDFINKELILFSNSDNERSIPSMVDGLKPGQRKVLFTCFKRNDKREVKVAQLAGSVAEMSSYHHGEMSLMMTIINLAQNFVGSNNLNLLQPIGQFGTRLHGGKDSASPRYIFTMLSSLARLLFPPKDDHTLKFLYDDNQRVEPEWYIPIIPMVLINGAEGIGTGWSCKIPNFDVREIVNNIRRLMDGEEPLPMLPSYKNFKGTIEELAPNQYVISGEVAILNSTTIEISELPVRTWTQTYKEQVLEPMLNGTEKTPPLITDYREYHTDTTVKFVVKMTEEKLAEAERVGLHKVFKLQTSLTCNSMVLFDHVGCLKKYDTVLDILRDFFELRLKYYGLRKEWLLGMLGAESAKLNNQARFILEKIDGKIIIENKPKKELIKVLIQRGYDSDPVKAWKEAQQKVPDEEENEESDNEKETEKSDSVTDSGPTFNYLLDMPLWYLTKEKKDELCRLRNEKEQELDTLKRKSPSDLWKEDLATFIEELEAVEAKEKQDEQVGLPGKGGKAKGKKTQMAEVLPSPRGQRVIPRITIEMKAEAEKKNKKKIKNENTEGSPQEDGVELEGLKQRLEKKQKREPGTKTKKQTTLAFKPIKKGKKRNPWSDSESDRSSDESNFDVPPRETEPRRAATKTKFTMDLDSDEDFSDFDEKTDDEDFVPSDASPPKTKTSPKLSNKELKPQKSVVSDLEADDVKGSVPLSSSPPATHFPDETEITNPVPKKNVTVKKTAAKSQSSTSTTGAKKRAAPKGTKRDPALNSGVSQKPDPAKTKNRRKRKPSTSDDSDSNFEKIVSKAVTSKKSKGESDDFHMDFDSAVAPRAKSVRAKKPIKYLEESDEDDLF

Target: T1, TOP2A (Homo sapiens, UniProt P11388)
T1 construct: 2 units of TOP2A (Topgen Cat#200H-2); purchased Topgen 200H-2
Experiment: TOP2A enzyme assay (plasmid relaxation assay)
Format: biochemical
Details: supercoiled plasmid DNA pBR322, 2 units TOP2A, 37° C. 30 min, increasing concentrations
Protocol: A plasmid relaxation assay by TOP2A enzyme was carried out in the absence of etoposide (lane 2) or increasing concentrations of etoposide (lane 3-5) or ethanol (vehicle control) (lane 6).
A plasmid relaxation activity by TOP2A enzyme was carried out in the absence of temozolomide (lane 2) or increasing concentrations of temozolomide (lane 3-4) or DMSO (vehicle control) (lane 5).
TOP2A activity was measured in vitro using a plasmid relaxation assay. Briefly, relaxation assays contained plasmid DNA (pBR322; 200 ng per reaction) and 2 units of TOP2A (Topgen Cat#200H-2) in a final volume of 30 μl in topoisomerase II reaction buffer (50 mM Tris-Cl at pH 8.0, 150 mM KCl, 10 mM MgCl2, 5 mM ATP, 0.5 mM DTT, 30 μg/ml BSA). The reactions were incubated at 37° C. for 30 min, and terminated by the addition of 2.5 μl loading dye (30% glycerol and 0.25% bromophenol blue). The samples were analyzed on 1% native agarose gel (without any intercalator). Gels were stained with ethidium bromide for 10-15 min. To determine the effect of the etoposide or temozolomide, specific amounts were added in the reaction mixture.
To test this possibility, we carried out TOP2A enzyme assay in which the ability of TOP2A (170 kDa) enzyme to relax the super coiled plasmid DNA in the presence of temozolomide was evaluated. […]

## COc1cc([C@@H]2c3cc4c(cc3[C@@H](O[C@@H]3O[C@@H]5CO[C@@H](C)O[C@H]5[C@H](O)[C@H]3O)[C@H]3COC(=O)[C@H]23)OCO4)cc(OC)c1O [etoposide]
  inhibition of TOP2A relaxation activity: inhibited the TOP2A relaxation activity very efficiently in a concentration dependent manner
